The values that follow come from patent publication US8846929B2, “Substituted-quinoxaline-type piperidine compounds and the uses thereof” (priority 2007, dated 2014).

One test has as its target delta opioid receptor (Homo sapiens (Human), UniProt P41143). Put plainly: In vitro delta-opioid receptor binding assay ([3H]-Naltrindole displacement).
Test [1] has as its target T1, μ-opioid receptor (Homo sapiens (Human), UniProt P35372). The test is described as follows: In vitro mu-opioid receptor binding assay ([3H]-diprenorphine displacement). Particulars: read-out: Ki [Average ± Std Deviation] Opioid Receptor Mu.
Test [2] has as its target T1, μ-opioid receptor. Put plainly: In vitro mu-opioid receptor [35S]GTPγS functional assay. The conditions noted are these: mean ± SEM. (GTPγS resists hydrolysis and so accumulates on activated G proteins.)
The target in test [3] is T2, kappa opioid receptor (Homo sapiens (Human), UniProt P41145). Put plainly: In vitro kappa-opioid receptor [35S]GTPγS functional assay. Particulars: mean ± SEM. It is filed as biochemical.
For test [4], the target named is T2, kappa opioid receptor. The test is described as follows: In vitro kappa-opioid receptor binding assay ([3H]-U69,593 displacement).
The target of test [5] is T3, human opioid receptor-like (ORL-1) (Homo sapiens (Human), UniProt P41146). Put plainly: In vitro ORL-1 receptor binding assay ([3H]-nociceptin displacement).
Test [6] addresses T3, human opioid receptor-like (ORL-1). Put plainly: In vitro ORL-1 receptor [35S]GTPγS functional assay. It is filed as biochemical. The conditions noted are these: mean ± SEM; for EC50: read-out: GTPγS ORL-1 EC50.

On to `CCOC(=O)c1nc2ccccc2n([C@H]2C[C@H]3CCC[C@@H](C2)N3C(C)CCC(C)C)c1=O` (stereo partly shown), for which the Ki on delta opioid receptor was 1.4 µM; on μ-opioid receptor [1], 0.487 µM; at kappa opioid receptor [4], 0.162 µM; in test [5], 0.0298 µM. The “GTPγS Opioid Receptor Mu Emax” value at μ-opioid receptor [2] is recorded as 40.7 ± 3.2%. Moreover, the “GTPγS Opioid Receptor Kappa Emax” value on kappa opioid receptor [3] is on record as 10 ± 0.6%. Also, the “GTPγS ORL-1 Emax” value in test [6] is 82.0 ± 2%.
In the case of `O=c1c(NCC(O)CO)nc2ccccc2n1[C@H]1C[C@H]2CC[C@@H](C1)N2C1CCCCCCC1` (stereo partly shown), the inhibition constant (Ki) was determined as 21.9 µM at delta opioid receptor, 0.394 µM on μ-opioid receptor [1], 0.224 µM at kappa opioid receptor [4] and 0.00554 µM in test [5]. Further, the “GTPγS Opioid Receptor Mu Emax” value on μ-opioid receptor [2] amounted to 16.3 ± 1.2%. At kappa opioid receptor [3], the “GTPγS Opioid Receptor Kappa Emax” value came to 10.3 ± 0.9%. The “GTPγS ORL-1 Emax” value in test [6] turned out to be 113.7 ± 2.0%.
For `NC(=O)CNc1nc2ccccc2n([C@H]2C[C@H]3CC[C@@H](C2)N3C2CCCCCCC2)c1=O`, the Ki at delta opioid receptor was 38.3 µM; at μ-opioid receptor [1] it was 0.459 µM; on kappa opioid receptor [4] it was 0.253 µM; in test [5], 0.00642 µM. Also, the “GTPγS Opioid Receptor Mu Emax” value at μ-opioid receptor [2] is reported as 9.7 ± 0.3%. The “GTPγS Opioid Receptor Kappa Emax” value on kappa opioid receptor [3] is on record as 9.3 ± 1.4%. Also, the “GTPγS ORL-1 Emax” value in test [6] amounted to 104.7 ± 3.8%.
For the compound `CN(CC(=O)O)[C@H]1CCN(c2nc3ccccc3n([C@H]3C[C@H]4CCC[C@@H](C3)N4C3CCCCCCC3)c2=O)C1`, the Ki on delta opioid receptor came to 1.16 µM; at μ-opioid receptor [1], 0.689 µM; at kappa opioid receptor [4], 0.589 µM; in test [5], 0.0229 µM. In addition, at μ-opioid receptor [2], the “GTPγS Opioid Receptor Mu Emax” value is reported as 31.7%. Further, on kappa opioid receptor [3], the “GTPγS Opioid Receptor Kappa Emax” value was determined as 20.0%. Besides, the “GTPγS ORL-1 Emax” value in test [6] was determined as 57.0%.
For `O=C(O)CC1CCN(c2nc3ccccc3n(C3CCN(C4CCCCCCC4)CC3)c2=O)C1` (stereo not shown), the Ki on delta opioid receptor amounted to 35.6 µM; on μ-opioid receptor [1] it was 12.8 µM; on kappa opioid receptor [4], 19.3 µM; in test [5] it was 0.189 µM. Besides, in test [6], the “GTPγS ORL-1 Emax” value is on record as 84 ± 10%. The EC50 in test [6] was 3.02 µM.
Turning to `NC(=O)CNc1nc2ccccc2n([C@@H]2C[C@H]3CC[C@@H](C2)N3C2CCCCCCC2)c1=O`, the Ki at delta opioid receptor worked out at 26.5 µM; on μ-opioid receptor [1], 6.7 µM; on kappa opioid receptor [4], 4.33 µM; in test [5] it was 0.234 µM. Further, the “GTPγS ORL-1 Emax” value in test [6] is given as 73.7 ± 4.4%.
In the same order, the values of `O=C(NCc1nn[nH]n1)c1nc2ccccc2n([C@H]2C[C@H]3CC[C@@H](C2)N3C2CCCCCCC2)c1=O` are over 20 µM, 1.16 µM, 1.72 µM, 0.157 µM and 58.3 ± 3.9%.
For the compound `O=C(O)c1nc2ccccc2n([C@H]2C[C@H]3CCC[C@@H](C2)N3C2/C=C\CCCCC2)c1=O` (stereo partly shown), the Ki was determined as 5.44 µM on delta opioid receptor, 3.29 µM at μ-opioid receptor [1], 0.365 µM at kappa opioid receptor [4] and 0.0036 µM in test [5]. Moreover, the “GTPγS Opioid Receptor Kappa Emax” value at kappa opioid receptor [3] was 6.0 ± 1.5%. The “GTPγS ORL-1 Emax” value in test [6] came out at 80.3 ± 2.2%.
Take `CC(C)CC(C)N1[C@@H]2CC[C@H]1C[C@@H](n1c(=O)c(C(=O)O)nc3ccccc31)C2` (stereo partly shown): the Ki at delta opioid receptor is 2.86 µM; on μ-opioid receptor [1], 1.76 µM; at kappa opioid receptor [4] it was 0.48 µM; in test [5] it was 0.05 µM. For the same compound, the “GTPγS Opioid Receptor Kappa Emax” value at kappa opioid receptor [3] came out at 30.3%. Moreover, in test [6], the “GTPγS ORL-1 Emax” value worked out at 86.5 ± 2.6%.
On to `O=C(O)C(=O)N1CC2CN(c3nc4ccccc4n(C4CC5CCC(C4)N5C4CCCCCCC4)c3=O)CC2C1` (stereo not shown), for which the Ki at delta opioid receptor is over 20 µM; on μ-opioid receptor [1] it was 2.92 µM; at kappa opioid receptor [4] it was 0.488 µM; in test [5], 0.0714 µM. Also, the “GTPγS Opioid Receptor Kappa Emax” value on kappa opioid receptor [3] was determined as 0.3%. Besides, the EC50 on kappa opioid receptor [3] (read-out: GTPγS Opioid Receptor Kappa EC50) is over 20 µM; in test [6], 1.62 µM. Also, in test [6], the “GTPγS ORL-1 Emax” value is given as 69.7 ± 5.2%.

For orientation: Ki means the equilibrium dissociation constant of an inhibitor or competing ligand from its target. In general, EC50 refers to the concentration giving half of the maximal effect.
